Measured values reported in patent US11021457B2, “Class of isoindolone-imide ring-1,3-dione-2-ene compounds, composition and use thereof” (WIGEN BIOMEDICINE TECHNOLOGY (SHANGHAI) CO., LTD., priority 2017, dated 2021).

Tests used:
[1] = test system: SU-DHL6; assay: Inhibition of tumor cell proliferation, CellTiter-Glo, SU-DHL6; type: cell-based; details: compound concentration 50 μM, 72 hours
[2] = test system: RPMI-8226; assay: Inhibition of tumor cell proliferation, CellTiter-Glo, RPMI-8226; type: cell-based; details: compound concentration 50 μM, 72 hours
[3] = test system: K562; assay: Inhibition of tumor cell proliferation, CellTiter-Glo, K562; type: cell-based; details: compound concentration 50 μM, 72 hours
[4] = test system: A549; assay: Inhibition of tumor cell proliferation, CellTiter-Glo, A549; type: cell-based; details: compound concentration 50 μM, 72 hours
[5] = test system: MDA-MB-453; assay: Inhibition of tumor cell proliferation, CellTiter-Glo, MDA-MB-453; type: cell-based; details: compound concentration 50 μM, 72 hours
[6] = test system: BxPC-3; assay: Inhibition of tumor cell proliferation, CellTiter-Glo, BxPC-3; type: cell-based; details: compound concentration 50 μM, 72 hours
[7] = target: LC3B (Homo sapiens (Human), UniProt Q9GZQ8); assay: Fluorescence polarization experiment targeting LC3B (GST-LC3B with FITC-labeled peptide); details: GST-LC3B 180 nM, FITC-labeled peptide 18 nM, 25° C.

Structure (SMILES)	Inhibitory activity against proliferation (cell survival rate) SU-DHL6 [1]	Inhibitory activity against proliferation (cell survival rate) RPMI-8226 [2]	Inhibitory activity against proliferation (cell survival rate) K562 [3]	Inhibitory activity against proliferation (cell survival rate) A549 [4]	Inhibitory activity against proliferation (cell survival rate) MDA-MB-453 [5]	Inhibitory activity against proliferation (cell survival rate) BxPC-3 [6]	IC50 [7]
O=C1CCC(N2C(=O)c3cccc(NCCOCCOCCOCCN4CCN(CCNC=C5C(=O)CC(c6ccccc6)CC5=O)CC4)c3C2=O)C(=O)N1 (centres unmarked)	+++ (survival rate (%)≤30)	++ (30<survival rate (%)≤60)	+ (60≤survival rate (%)<90)	+++ (survival rate (%)≤30)	+ (60≤survival rate (%)<90)	+ (60≤survival rate (%)<90)	15 to 100 µM
O=C1CCC(N2Cc3c(NC(=O)[C@H](CCCNC=C4C(=O)CC(c5ccccc5)CC4=O)NC=C4C(=O)CC(c5ccccc5)CC4=O)cccc3C2=O)C(=O)N1 (some centres unmarked)	+ (60≤survival rate (%)<90)	+++ (survival rate (%)≤30)	+++ (survival rate (%)≤30)	+++ (survival rate (%)≤30)	+ (60≤survival rate (%)<90)	+ (60≤survival rate (%)<90)	100 to 1000 µM
O=C1CCC(N2Cc3c(NC=C4C(=O)CC(c5ccnc6ccccc56)CC4=O)cccc3C2=O)C(=O)N1 (centres unmarked)	+ (60≤survival rate (%)<90)	+++ (survival rate (%)≤30)	++ (30<survival rate (%)≤60)	+ (60≤survival rate (%)<90)	+++ (survival rate (%)≤30)	+ (60≤survival rate (%)<90)	
